# Results taken from US8124349B2, “Toll-like receptor assays” (University of Massachusetts, priority 2003, dated 2012).
# Sequences of proteins named here, by UniProt entry; tags and fusion partners are left off. Residues count along the entry.
# UniProt O00206, 24-839: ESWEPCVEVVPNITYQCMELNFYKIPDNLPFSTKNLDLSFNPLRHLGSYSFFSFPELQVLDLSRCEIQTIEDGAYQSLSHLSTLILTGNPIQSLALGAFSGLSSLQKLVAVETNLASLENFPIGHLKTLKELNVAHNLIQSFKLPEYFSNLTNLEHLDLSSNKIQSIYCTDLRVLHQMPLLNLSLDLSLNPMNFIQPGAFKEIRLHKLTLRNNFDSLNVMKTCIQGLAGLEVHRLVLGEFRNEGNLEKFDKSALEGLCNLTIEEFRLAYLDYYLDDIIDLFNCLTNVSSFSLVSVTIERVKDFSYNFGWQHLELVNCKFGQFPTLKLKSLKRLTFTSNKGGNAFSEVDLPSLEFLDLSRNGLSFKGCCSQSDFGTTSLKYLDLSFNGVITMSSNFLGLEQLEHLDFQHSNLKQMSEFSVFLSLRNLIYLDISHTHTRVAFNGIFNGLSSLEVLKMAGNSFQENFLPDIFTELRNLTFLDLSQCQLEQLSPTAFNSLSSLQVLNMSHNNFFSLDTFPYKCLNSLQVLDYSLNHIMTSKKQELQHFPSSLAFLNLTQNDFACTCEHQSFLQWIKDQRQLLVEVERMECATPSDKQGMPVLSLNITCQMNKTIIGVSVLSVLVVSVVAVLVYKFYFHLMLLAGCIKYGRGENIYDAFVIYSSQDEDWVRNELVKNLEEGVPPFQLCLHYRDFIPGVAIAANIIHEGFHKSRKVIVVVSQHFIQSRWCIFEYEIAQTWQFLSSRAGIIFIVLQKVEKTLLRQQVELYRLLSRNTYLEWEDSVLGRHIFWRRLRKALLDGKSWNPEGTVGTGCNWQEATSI
# UniProt Q9Y6Y9, 19-160: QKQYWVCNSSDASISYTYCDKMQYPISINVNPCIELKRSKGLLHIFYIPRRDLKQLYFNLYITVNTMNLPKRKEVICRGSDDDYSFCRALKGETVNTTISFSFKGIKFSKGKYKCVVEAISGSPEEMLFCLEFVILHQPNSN
# Assays:
# TLR4^GFP = TLR4^GFP (Homo sapiens, UniProt O00206+Q9Y6Y9); details: biotinylated LPS 1 mg/ml, FIG. 9 top panel
# MD-2 = MD-2 (Homo sapiens, UniProt Q9Y6Y9); details: supernatants of the same cells; FIG. 9 lower panel
compound,measurement,setting,value
CCCCCC/C=C\CCCCCCCCCC(=O)N[C@H]1[C@H](OC[C@H]2O[C@H](OP(=O)(O)O)[C@H](NC(=O)CC(=O)CCCCCCCCCCC)[C@@H](OCCCCCCCCCC)[C@@H]2O)O[C@H](COC)[C@@H](OP(=O)(O)O)[C@@H]1OCC[C@@H](CCCCCCC)OC [B1287],"Competitor concentration that completely blocks the TLR4-LPS interaction, relative to LPS",TLR4^GFP,roughly 10 fold the LPS (in weight)
same,Prevention of the interaction of TLR4 and biotinylated LPS,TLR4^GFP; one hour,could efficiently prevent the interaction of TLR4 and LPS
same,Prevention of the interaction of LPS with MD-2,MD-2,could efficiently prevent the interaction of LPS with MD-2
